# Reference: US6346549B1, “Treatment of pharmacology of drug misuse and other addictive disorders” (Knoll Pharmaceutical Company, priority 1999, dated 2002)
# The chains behind the UniProt entries cited, without tags or fusion partners.
# UniProt P23977, whole entry: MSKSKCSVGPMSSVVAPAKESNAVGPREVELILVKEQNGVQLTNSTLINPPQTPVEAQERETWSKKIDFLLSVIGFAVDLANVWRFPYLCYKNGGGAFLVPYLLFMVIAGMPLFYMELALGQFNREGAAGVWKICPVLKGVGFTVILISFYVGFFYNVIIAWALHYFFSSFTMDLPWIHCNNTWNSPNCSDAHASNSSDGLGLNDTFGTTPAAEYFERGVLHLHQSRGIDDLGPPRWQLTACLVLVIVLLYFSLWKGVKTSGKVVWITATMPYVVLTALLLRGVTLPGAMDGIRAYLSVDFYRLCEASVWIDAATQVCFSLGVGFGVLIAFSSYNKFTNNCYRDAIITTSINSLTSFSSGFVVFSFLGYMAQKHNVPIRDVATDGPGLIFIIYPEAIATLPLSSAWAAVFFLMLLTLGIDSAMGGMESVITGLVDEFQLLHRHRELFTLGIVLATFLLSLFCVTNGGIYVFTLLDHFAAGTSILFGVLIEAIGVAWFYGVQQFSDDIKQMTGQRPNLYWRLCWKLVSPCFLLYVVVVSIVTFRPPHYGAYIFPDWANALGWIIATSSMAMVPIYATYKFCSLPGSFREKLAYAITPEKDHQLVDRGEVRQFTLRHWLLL
# Tests used:
# [1] = target: [3H]Dopamine reuptake in rat brain tissue (Rattus norvegicus, UniProt P23977); experiment: biochemical
# [2] = target: T1, [3H]Noradenaline reuptake in rat brain tissue (Rattus norvegicus); experiment: in vitro [3H]noradrenaline reuptake inhibition in rat brain tissue; format: biochemical; conditions: monoamine reuptake inhibition, means of ≧3 separate determinations
# T1 construct: in rat brain tissue; from tissue; host or cells: rat brain tissue
Structure (SMILES),Ki [1],Ki [2]
COc1ccc(C(CN(C)C)C2(O)CCCCC2)cc1 (stereo not shown) [Venlafaxine],2590 nM,196 nM
"CC(C)CC(N)C1(c2ccc(Cl)cc2)CCC1 (stereo not shown) [Example 2, 1-[1-(4-chlorophenyl)cyclobutyl]-3-methylbutylamine]",31 nM,–
"CNC(CC(C)C)C1(c2ccc(Cl)cc2)CCC1 (stereo not shown) [Example 1, N-{1-[1-(4-chlorophenyl)cyclobutyl]-3-methylbutyl}-N-methylamine]",24 nM,–
